Consider one molecule from patent US20100249419A1, “UTILIZATION OF NOVEL COMPOUNDS WITH AMYLOID AFFINITY AND METHOD OF PRODUCING THE SAME” (NIHON MEDI-PHYSICS CO., LTD., priority 2007, published 2010).

Chains of the proteins cited; added tags and fusions are not shown. Residues count along the entry.
UniProt P05067, 672-713: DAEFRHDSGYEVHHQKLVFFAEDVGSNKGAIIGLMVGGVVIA

The experiment addresses T1, aggregated Aβ (Aβ1-42) amyloid (Homo sapiens, UniProt P05067).
T1 construct: Aβ1-42 (manufactured by Wako) was dissolved in phosphate buffer (pH 7.4); purchased Wako
The experiment can be described thus: In vitro binding test: inhibition of [^125I]3′-I-BTA-0 binding to amyloid. To be noted: [^125I]3′-I-BTA-0 400 pmol/L, amyloid 1 μmol/L, 22° C., 3 hours. As to the method:
Affinity of the present compounds with amyloid was examined by the following in vitro binding tests.
The measured radioactivity level was defined as the background radioactivity level, and used in the calculation of the inhibition ratio (hereinafter referred to as BG).
(9) Using the radioactivity levels measured above in (7) and (8), the inhibition ratio was determined by the following formula (1).
A graph in which values converted by probit transformation from the obtained inhibition ratios were plotted relative to logarithms of concentrations of compounds for evaluation was prepared to obtain an approximate straight line by the least square method.

Take `Cc1ccc2c(c1)sc(-c1ccc(N(C)C)cc1)[n+]2C` [Thioflavin T, reference compound]: the IC50 (in general, the concentration at which inhibition is half-maximal) was over 1000 nM.
